The text below walks through data of patent US20160158382A1, “AGENT FOR THE TREATMENT AND PREVENTION OF SLEEP DISORDERS” (published 2016).

For series [1], the system named is mature outbred male white rats. Nature of the series: Sedative-hypnotic activity: EEG analysis of sleep-wake cycle stages in freely moving rats. The procedure:
The study of the sedative-hypnotic effect of Almacin vs. comparator agents was conducted on 35 mature outbred male white rats weighing 230-250 g. The study was conducted in accordance with “Methodological Guidelines for Conducting a Study of Sedative-Hypnotic Activity of Pharmaceutical Substances” as set forth in “The Guidance Manual for Experimental (non-clinical) Studies of Novel Pharmaceutical Substances” [11].
The neurophysiological (electrophysiological) criteria of various stages of the sleep-wake cycle were analyzed. Electrodes were surgically implanted into the sensorimotor area of the cerebral cortex, dorsal hippocampus, and neck muscles of Nembutal-anesthetized rats (50 mg/kg, intramuscular) in an encephalometer, in accordance with the brain atlas, 5-7 days prior to the experiments on sleep monitoring. Electrobiological activity of the brain (electroencephalography, EEG) was recorded for unrestrained animals in the morning/daytime hours for at least 5 hrs. Sleep phases were determined experimentally by the electrical activity of the cerebral cortex and dorsal hippocampus, and by the electromyogram. In the analysis of sleep-wake cycles, the software recorded the following indicators: latent time from the beginning of registration to the appearance of the first episode of slow-wave and fast-wave (paradoxical, REM) sleep; total number of slow-wave and fast-wave sleep episodes and episodes of wakefulness; duration of all slow-wave and fast-wave sleep episodes and all episodes of wakefulness; percentage of all slow-wave and fast-wave sleep episodes and all episodes of wakefulness calculated by the ratio between the duration of said indicators and the duration of the total EEG record.
The study was conducted on 35 mature outbred male white rats weighing 230-250 g. The animals were received from the central nursery for laboratory animals “Stolbovaya”, Moscow Oblast. The animals were kept in accordance with the principles of Good Laboratory Practice for nonclinical studies in the Russian Federation. The animals were kept in a vivarium at 20-22° C., with the light-dark cycle of 12 hours of light and 12 hours of darkness, in plastic cages T/4A, 580×375×200 mm in size, stainless steel cover, and dust-free litter covered with wood shavings, 8 rats per cage. The animals were allowed free access to food and water and were fed a full ration of extruded pelletized feed and drinking water. The experiments were conducted during the first half of the day.
The study of the sedative-hypnotic activity of the agent of the present invention was conducted in accordance with “Methodological Guidelines for Conducting a Study of Sedative-Hypnotic Activity of Pharmaceutical Substances” as set forth in “The Guidance Manual for Experimental (non-clinical) Studies of Novel Pharmaceutical Substances” [11]. The neurophysiological (electrophysiological) criteria of various stages of the sleep-wake cycle were analyzed.
Electrodes were surgically implanted into Nembutal-anesthetized rats (50 mg/kg, intramuscular) 5-7 days prior to the experiments on sleep monitoring. Long-term electrodes for registration of electrical activity were implanted in an encephalometer into the sensorimotor area of the cortex, dorsal hippocampus, and neck muscles. Dorsal hippocampus coordinates were calculated in accordance with the brain atlas of the rats. Electrical activity of the brain and electromyograms of the neck muscles were recorded with nichrome wire electrodes with varnished insulation, 90 mcm in diameter for the hippocampus, and 120 mcm—for the sensorimotor area of the cortex and neck muscle implantation. The ends of the electrodes were soldered to silver-plated contacts 0.8-1 mm in diameter, which were affixed to the cranial bones with dental visfat-cement. During the experiment, the contacts were attached to lead wires connected to the electroencephalograph's control unit. […]

The conditions of series [2]: doses exceeding the recommended therapeutic dose of glycine 20-fold; cited from earlier work.
[3] abbreviates: 5-hr. registration, agent 2 mg/kg, glycine 10 mg/kg, Donormyl 15 mg/kg.

Some compounds may have been tested in ways that are not shown here.

As to “glycine immobilized on detonation nanodiamond particles 2-10 nm in size”, in series [1] (2 mg/kg), the “Decrease of fast-wave sleep onset latency compared to control” value came out at 21% and the “Decrease of slow-wave sleep onset latency compared to control” value was found to be 26%. Moreover, the “Increase in the number of fast-wave sleep episodes compared to control” value in series [1] (2 mg/kg, 5-hour registration period) turned out to be 31%. In series [1] (2 mg/kg, 5-hr. registration), the “Increase in the total duration of fast-wave sleep compared to control” value turned out to be 66%. The “Reduction in the number of wakefulness episodes compared to control” value in series [1] (5-hour registration, agent 2 mg/kg, glycine 10 mg/kg, Donormyl 15 mg/kg) came to 27%. For the same substance, the “Reduction of the duration of wakefulness compared to control” value in series [1] (5-hr. registration, agent 2 mg/kg, Donormyl 15 mg/kg) is 26%. In series [1] (setting [3]), the “Effect on the percentage of fast-wave sleep compared to control (in words)” value is “statistically significant increase” and the “Effect on the percentage of wakefulness compared to control (in words)” value is given as “decrease”. For the same substance, the “Theta-rhythm synchronization and modulation in the electrograms of sensorimotor cortex and dorsal hippocampus in the fast-wave (paradoxical) sleep phase” value in series [1] (FIG. 2) is “enhance the theta-rhythm synchronization and modulation”. Besides, in series [1] (agent 2 mg/kg versus glycine and Donormyl 15 mg/kg), the Overall sedative-hypnotic effect result is “pronounced sedative-hypnotic effect”. Also, the Number of episodes, fast-wave sleep in series [1] (intraperitoneal, N = 7, agent 2 mg/kg, glycine 10 mg/kg, Donormyl 15 mg/kg, 5-hour registration, control 14.7 ± 1.59) is 19.4 ·. For the same substance, in series [1] (intraperitoneal, N = 7, agent 2 mg/kg, glycine 10 mg/kg, Donormyl 15 mg/kg, 5-hour registration, control 38.7 ± 1.46), the Number of episodes, wakefulness was 28.4 ·. The “Number of episodes, slow-wave sleep” value in series [1] (intraperitoneal, N = 7, agent 2 mg/kg, glycine 10 mg/kg, Donormyl 15 mg/kg, 5-hour registration, control 39.3 ± 1.46) came to 33.9 ± 1.81. In addition, the “Ratio between the duration of fast-wave sleep and the duration of total recording period” value in series [1] (intraperitoneal, N = 7, agent 2 mg/kg, glycine 10 mg/kg, Donormyl 15 mg/kg, control 4.9 ± 0.78) stood at 8.8 ± 1.25 %. For the same substance, the “Duration, fast-wave sleep” value in series [1] (intraperitoneal, N = 7, agent 2 mg/kg, glycine 10 mg/kg, Donormyl 15 mg/kg, control 16.6 ± 2.78) came to 27.6 ± 3.93 min. Also, the “Ratio between the duration of wakefulness and the duration of total recording period” value in series [1] (intraperitoneal, N = 7, agent 2 mg/kg, glycine 10 mg/kg, Donormyl 15 mg/kg, control 33.2 ± 2.73) was 26.8 ± 3.80 %. Further, the “Ratio between the duration of slow-wave sleep and the duration of total recording period” value in series [1] (intraperitoneal, N = 7, agent 2 mg/kg, glycine 10 mg/kg, Donormyl 15 mg/kg, control 61.6 ± 2.49) is reported as 64.4 ± 4.62%. Besides, in series [1] (intraperitoneal, N = 7, agent 2 mg/kg, glycine 10 mg/kg, Donormyl 15 mg/kg, control 111.5 ± 9.58), the “Duration, wakefulness” value came to 83.5 ± 10.69 min. The “Duration, slow-wave sleep” value in series [1] (intraperitoneal, N = 7, agent 2 mg/kg, glycine 10 mg/kg, Donormyl 15 mg/kg, control 206.3 ± 7.47) amounted to 205.0 ± 18.17 min. For the same substance, the “Latency, slow-wave sleep” value in series [1] (intraperitoneal, n = 7, agent 2 mg/kg, glycine 10 mg/kg, Donormyl 15 mg/kg, control 17.0 ± 2.4, time from start of EEG registration to first episode) was found to be 12.6 ± 3.4 min. In addition, the “Latency, fast-wave sleep” value in series [1] (intraperitoneal, n = 7, agent 2 mg/kg, glycine 10 mg/kg, Donormyl 15 mg/kg, control 69.0 ± 4.44, time from start of EEG registration to first episode) was 55.0 ± 3.51 min. The “Side or toxic effects” value in series [2] was “did not cause any side or toxic effects”.
